This is an account of results in ChEMBL document CHEMBL5212743, “Selectivity Literature for EUbOPEN Chemogenomics Library wave 3” (2023).

Sequences of proteins named here, by UniProt entry; tags and fusion partners are left off. A change or cut given only in a name is not applied to a line headed by its entry.
UniProt P08253: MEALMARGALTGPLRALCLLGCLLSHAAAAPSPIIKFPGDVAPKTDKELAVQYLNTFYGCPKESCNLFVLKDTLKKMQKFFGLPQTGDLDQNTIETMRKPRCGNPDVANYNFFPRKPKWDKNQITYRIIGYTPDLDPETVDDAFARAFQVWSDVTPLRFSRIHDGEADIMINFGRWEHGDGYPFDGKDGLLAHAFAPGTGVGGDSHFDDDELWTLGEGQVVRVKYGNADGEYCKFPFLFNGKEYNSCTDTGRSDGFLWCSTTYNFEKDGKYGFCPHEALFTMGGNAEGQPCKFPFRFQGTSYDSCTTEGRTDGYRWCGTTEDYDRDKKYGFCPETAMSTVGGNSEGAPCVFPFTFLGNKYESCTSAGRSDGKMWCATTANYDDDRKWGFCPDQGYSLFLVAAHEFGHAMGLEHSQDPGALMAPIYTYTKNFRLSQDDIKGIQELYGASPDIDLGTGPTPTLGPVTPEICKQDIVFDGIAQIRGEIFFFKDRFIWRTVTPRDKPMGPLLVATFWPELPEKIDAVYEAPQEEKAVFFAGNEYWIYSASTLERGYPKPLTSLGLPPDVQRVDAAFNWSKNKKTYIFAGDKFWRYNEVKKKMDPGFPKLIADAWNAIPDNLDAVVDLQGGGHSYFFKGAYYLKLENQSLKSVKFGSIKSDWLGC
UniProt Q9Y5N1: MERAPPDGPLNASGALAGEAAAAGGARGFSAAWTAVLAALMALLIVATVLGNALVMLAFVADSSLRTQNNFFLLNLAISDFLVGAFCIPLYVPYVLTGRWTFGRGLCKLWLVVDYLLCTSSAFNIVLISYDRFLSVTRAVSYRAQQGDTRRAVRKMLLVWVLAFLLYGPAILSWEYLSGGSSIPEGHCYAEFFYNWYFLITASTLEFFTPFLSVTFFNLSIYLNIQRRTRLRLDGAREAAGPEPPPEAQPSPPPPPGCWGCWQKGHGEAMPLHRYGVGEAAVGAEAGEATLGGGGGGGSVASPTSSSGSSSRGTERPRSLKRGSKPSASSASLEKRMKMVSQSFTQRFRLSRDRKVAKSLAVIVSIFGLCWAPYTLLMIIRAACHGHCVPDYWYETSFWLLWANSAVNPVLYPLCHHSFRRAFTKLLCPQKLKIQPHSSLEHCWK
UniProt Q13131: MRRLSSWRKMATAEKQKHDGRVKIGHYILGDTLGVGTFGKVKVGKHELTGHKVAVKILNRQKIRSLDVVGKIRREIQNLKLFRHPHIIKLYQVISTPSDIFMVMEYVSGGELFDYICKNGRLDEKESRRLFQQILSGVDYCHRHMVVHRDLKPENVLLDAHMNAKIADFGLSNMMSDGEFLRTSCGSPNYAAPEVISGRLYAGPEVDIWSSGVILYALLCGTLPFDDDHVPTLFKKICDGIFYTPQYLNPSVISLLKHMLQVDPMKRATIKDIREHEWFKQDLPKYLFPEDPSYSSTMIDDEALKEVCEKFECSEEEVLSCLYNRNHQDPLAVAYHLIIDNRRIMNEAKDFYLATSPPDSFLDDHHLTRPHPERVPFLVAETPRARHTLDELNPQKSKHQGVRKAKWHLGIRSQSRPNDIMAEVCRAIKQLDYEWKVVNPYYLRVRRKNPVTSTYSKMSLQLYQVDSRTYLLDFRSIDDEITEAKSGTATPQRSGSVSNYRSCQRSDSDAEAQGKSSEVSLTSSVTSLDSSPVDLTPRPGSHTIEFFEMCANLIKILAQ
UniProt P18825, whole entry: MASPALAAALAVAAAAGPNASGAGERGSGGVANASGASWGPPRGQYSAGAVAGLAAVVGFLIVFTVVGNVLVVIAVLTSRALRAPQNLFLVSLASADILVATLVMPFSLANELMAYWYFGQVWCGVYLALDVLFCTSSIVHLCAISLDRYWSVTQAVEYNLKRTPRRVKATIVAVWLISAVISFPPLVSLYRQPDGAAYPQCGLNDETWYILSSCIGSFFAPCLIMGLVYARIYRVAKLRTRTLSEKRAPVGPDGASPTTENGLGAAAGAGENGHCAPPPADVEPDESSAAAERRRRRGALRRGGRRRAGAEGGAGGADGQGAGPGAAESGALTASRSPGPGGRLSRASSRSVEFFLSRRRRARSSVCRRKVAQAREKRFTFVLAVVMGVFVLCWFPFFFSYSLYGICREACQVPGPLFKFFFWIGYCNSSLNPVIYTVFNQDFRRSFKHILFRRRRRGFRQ
UniProt P25100, whole entry: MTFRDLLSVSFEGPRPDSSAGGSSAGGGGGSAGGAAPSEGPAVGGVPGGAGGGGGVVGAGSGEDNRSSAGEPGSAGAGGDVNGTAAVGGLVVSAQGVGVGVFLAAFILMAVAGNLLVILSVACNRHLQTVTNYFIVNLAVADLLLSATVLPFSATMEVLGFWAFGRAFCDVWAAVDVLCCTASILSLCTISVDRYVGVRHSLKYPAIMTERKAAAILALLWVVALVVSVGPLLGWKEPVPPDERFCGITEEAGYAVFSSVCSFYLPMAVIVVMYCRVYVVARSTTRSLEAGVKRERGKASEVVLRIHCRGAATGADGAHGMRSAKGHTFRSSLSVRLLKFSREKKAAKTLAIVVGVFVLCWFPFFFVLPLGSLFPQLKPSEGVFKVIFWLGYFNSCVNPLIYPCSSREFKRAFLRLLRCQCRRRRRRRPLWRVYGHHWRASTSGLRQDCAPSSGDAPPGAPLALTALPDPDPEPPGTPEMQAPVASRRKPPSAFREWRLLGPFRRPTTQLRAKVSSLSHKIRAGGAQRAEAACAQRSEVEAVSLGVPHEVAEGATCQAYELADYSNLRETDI
UniProt O00750: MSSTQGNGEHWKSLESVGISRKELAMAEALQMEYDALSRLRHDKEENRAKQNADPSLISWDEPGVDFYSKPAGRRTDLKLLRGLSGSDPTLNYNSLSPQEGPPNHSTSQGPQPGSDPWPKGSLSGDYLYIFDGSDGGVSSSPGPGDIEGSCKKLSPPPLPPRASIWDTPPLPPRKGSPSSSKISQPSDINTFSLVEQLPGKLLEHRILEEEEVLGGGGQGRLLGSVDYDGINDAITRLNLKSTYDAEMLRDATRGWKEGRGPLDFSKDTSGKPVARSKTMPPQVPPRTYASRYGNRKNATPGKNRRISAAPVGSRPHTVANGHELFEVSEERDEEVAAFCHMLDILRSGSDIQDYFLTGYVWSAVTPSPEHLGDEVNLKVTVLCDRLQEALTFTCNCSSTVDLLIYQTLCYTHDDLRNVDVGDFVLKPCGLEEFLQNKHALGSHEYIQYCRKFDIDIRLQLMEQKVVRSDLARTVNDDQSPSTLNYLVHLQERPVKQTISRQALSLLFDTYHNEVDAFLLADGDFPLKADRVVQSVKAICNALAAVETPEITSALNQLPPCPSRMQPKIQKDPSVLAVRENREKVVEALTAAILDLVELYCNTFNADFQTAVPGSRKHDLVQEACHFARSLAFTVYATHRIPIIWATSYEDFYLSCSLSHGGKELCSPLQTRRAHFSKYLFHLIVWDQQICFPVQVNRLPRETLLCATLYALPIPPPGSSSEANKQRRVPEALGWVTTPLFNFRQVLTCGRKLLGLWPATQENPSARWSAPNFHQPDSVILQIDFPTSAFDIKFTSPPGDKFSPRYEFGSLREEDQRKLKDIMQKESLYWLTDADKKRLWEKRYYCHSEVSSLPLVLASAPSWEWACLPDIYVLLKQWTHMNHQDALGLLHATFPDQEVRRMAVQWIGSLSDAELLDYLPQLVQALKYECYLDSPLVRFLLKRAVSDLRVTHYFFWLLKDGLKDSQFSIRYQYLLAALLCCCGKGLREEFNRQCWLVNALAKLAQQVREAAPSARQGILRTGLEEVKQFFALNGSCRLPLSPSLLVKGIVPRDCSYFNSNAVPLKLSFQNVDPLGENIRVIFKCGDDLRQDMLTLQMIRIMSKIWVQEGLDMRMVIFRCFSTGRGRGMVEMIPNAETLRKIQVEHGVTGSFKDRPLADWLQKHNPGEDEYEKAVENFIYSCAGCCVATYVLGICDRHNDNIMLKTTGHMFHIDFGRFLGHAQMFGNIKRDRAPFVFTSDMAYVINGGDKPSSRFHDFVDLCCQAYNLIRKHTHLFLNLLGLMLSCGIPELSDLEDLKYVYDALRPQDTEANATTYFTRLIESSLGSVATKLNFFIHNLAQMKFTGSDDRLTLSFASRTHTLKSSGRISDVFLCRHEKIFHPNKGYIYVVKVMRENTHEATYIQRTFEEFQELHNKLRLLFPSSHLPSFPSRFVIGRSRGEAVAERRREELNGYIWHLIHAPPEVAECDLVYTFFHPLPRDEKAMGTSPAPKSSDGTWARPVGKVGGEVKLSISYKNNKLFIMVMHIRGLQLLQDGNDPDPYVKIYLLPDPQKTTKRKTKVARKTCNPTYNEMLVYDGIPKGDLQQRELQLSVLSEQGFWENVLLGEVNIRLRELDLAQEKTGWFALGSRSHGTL
UniProt P48736: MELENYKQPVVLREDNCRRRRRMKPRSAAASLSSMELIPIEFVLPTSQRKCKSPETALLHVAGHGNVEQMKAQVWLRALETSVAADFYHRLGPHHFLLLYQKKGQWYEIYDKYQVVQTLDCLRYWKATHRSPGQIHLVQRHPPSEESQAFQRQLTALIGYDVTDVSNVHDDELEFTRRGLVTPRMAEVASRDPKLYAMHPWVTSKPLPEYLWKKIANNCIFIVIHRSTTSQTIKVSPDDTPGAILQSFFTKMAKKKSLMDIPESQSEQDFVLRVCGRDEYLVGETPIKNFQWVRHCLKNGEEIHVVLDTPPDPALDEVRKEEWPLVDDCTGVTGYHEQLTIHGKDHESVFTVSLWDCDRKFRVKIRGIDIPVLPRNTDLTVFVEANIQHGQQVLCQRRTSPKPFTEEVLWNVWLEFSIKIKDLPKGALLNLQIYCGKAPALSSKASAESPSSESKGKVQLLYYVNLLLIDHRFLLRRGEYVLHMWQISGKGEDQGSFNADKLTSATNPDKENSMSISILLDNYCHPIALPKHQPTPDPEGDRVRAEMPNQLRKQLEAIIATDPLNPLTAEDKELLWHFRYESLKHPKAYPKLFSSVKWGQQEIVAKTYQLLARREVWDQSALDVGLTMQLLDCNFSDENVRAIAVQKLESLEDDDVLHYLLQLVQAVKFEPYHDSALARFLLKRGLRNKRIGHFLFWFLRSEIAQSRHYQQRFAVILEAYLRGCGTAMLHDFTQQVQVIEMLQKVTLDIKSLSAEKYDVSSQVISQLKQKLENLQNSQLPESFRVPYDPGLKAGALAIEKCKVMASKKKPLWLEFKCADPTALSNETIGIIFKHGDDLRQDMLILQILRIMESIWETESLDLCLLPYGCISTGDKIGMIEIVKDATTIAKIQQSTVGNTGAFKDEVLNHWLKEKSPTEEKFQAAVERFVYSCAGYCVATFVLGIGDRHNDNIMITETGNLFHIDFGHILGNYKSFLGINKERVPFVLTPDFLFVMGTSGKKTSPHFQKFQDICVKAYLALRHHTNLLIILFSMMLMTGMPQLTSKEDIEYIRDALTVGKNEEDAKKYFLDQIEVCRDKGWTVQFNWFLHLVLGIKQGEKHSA
UniProt Q8NEB9, whole entry: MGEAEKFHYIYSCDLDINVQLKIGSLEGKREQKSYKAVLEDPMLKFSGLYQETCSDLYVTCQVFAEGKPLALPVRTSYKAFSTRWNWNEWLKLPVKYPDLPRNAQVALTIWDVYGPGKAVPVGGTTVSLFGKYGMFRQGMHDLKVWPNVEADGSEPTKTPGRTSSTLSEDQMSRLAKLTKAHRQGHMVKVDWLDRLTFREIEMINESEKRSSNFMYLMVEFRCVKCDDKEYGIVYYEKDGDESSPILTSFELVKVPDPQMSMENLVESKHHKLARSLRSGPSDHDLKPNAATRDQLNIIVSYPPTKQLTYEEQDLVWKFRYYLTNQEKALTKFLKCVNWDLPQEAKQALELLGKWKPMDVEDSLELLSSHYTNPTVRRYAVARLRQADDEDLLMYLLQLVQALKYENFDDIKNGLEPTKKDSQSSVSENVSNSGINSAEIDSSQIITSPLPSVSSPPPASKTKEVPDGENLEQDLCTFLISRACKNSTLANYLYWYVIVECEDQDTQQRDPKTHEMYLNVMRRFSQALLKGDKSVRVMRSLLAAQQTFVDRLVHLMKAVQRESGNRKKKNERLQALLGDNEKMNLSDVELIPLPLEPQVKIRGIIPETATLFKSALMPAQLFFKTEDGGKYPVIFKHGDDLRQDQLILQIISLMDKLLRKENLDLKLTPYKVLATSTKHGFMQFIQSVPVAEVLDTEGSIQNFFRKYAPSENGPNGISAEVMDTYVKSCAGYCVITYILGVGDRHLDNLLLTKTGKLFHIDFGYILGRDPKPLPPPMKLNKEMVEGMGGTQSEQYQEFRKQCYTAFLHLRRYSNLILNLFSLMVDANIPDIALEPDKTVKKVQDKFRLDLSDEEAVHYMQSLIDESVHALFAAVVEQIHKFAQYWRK

The structures appear in SMILES notation.

In experiment [1] the target is 72 kDa type IV collagenase (Homo sapiens, UniProt P08253).
A further experiment has as its target Histamine H3 receptor (Homo sapiens, UniProt Q9Y5N1). Particulars: at 1 µM.
Experiment [2] addresses 5'-AMP-activated protein kinase catalytic subunit alpha-1 (Homo sapiens, UniProt Q13131). Particulars: at 10 µM.
Experiment [3] deals with Alpha-2C adrenergic receptor (Homo sapiens, UniProt P18825). Particulars: at 1 µM.
Experiment [4] deals with Alpha-1D adrenergic receptor (Homo sapiens, UniProt P25100). Particulars: at 1 µM.
Experiment [5] deals with Phosphatidylinositol 4-phosphate 3-kinase C2 domain-containing subunit beta (Homo sapiens) (UniProt O00750). Particulars: at 1 µM.
For experiment [6], the target named is Phosphatidylinositol 4,5-bisphosphate 3-kinase catalytic subunit gamma isoform (Homo sapiens, UniProt P48736). Particulars: at 1 µM.
Experiment [7] concerns the target Phosphatidylinositol 3-kinase catalytic subunit type 3 (Homo sapiens) (UniProt Q8NEB9). The settings on record: at 1 µM.

Molecule `CCOC(=O)c1cc2cc(-c3cc(C(=O)NCc4ccc(C(=O)O)cc4)nn3C)ccc2[nH]1` [BI 4394] registered an IC50 in experiment [1] of more than 18 µM.

In the case of `COc1cc2c(NC3CCN(C(C)C)CC3)nc(N3CCC(F)(F)CC3)nc2cc1OCCCN1CCCC1`, the % of control on Histamine H3 receptor came to 93%; in experiment [3], 67%; in experiment [4], 59%. Also, in experiment [2], the % of inhibition was 10%.

As for `Cc1nc(-c2cn3c(n2)-c2ccc(-c4cnn(C(C)(C)C(N)=O)c4)cc2OCC3)n(C(C)C)n1`, the % of control in experiment [5] amounted to 80.4%; in experiment [6], 90.6%; in experiment [7], 69.9%.

Broadly, the IC50 is the concentration that gives 50% inhibition.
